pKi: −log10 of the molar value.
Molecular target: human cloned 5-HT6 receptors (Homo sapiens, UniProt P50406)
Test: 5-HT6 binding affinity, [3H]-LSD displacement
Details: read-out: 5-HT6 Binding Ki; membranes of Hela cells expressing human cloned 5-HT6 receptors; [3H]-LSD 3.0 nM; 120 minutes at room temperature; tested form: HCl

Protein sequences, listed by entry. Tags and fused reporters are not part of them.
UniProt P50406, whole entry: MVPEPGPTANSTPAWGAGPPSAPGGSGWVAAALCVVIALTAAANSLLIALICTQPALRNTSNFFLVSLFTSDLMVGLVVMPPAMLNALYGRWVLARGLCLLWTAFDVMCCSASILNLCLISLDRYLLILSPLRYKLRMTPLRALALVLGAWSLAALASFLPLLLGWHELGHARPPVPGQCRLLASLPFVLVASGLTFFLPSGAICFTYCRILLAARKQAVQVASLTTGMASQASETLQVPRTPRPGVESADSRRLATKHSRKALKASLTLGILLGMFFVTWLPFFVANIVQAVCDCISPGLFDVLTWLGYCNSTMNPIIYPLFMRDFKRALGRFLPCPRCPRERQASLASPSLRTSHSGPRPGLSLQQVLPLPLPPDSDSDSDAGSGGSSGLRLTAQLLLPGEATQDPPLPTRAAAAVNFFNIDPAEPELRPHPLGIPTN

Compound | pKi
CCNCCOc1cccc2c(S(=O)(=O)c3cccc4ccccc34)nn(Cc3cccc(Cl)c3)c12 | 7.60 to 7.96
O=S(=O)(c1cccc2ccccc12)c1nn(Cc2cccc(Cl)c2)c2c(OCCN3CCCCC3)cccc12 | 8.00 to 11.00
O=S(=O)(c1cccc2ccccc12)c1nn(Cc2cccc(Cl)c2)c2c(OCCN3CCCC3)cccc12 | 7.60 to 7.96
CCN(CC)CCOc1cccc2c(S(=O)(=O)c3cccc4ccccc34)nn(Cc3cccc(Cl)c3)c12 | 7.35 to 7.44
CCCCNCCOc1cccc2c(S(=O)(=O)c3cccc4ccccc34)nn(Cc3cccc(Cl)c3)c12 | < 7.35

From US7723329B2, “Substituted-3-sulfonylindazole derivatives as 5-hydroxytryptamine-6 ligands” (Wyeth LLC, priority 2005, dated 2010)
